## scFv variants of Ab-14 (light chain) against a SARS-CoV-2 spike peptide

Binding partner: SARS-CoV-2 spike HR2 peptide, sequence PDVDLGDISGINAS.

Each scFv is VH, three GGGGS repeats, VL, as in the parent Ab-14, and differs from it in the CDRs of the light chain only.
VH: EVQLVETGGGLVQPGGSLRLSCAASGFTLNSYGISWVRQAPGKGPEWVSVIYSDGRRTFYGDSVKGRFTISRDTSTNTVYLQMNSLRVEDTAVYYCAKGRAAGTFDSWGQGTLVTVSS
VL: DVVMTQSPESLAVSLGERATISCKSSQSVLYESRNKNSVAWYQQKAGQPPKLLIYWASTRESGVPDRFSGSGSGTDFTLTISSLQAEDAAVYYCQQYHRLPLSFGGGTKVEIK

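The parent was found by panning a naive human phage display library on the peptide. AAYL50 was designed without a model: most single CDR substitutions and a random sample of double and triple ones. The scFvs were displayed on barcoded MATa yeast, the peptide on MATalpha yeast. Pairs that bind mate more often; barcode pairs of the diploids are counted by sequencing. The ratio of observed to expected reads was calibrated, replicate by replicate, on BCL2-family standards whose Kd was known from biolayer interferometry. There are three technical replicates.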

The parent's light chain CDRs are KSSQSVLYESRNKNSVA, WASTRES, QQYHRLPLS; each variant's own CDRs replace them letter for letter.
Scale: log10 of Kd in nM, estimated from mating counts; low values are strong binders.
"nd" means that the variant was in the library but no mating with the target was seen in that replicate; the authors take this as a sign of poor binding, and no number exists.

CDR-L1 | CDR-L2 | CDR-L3 | log10 Kd (nM) by replicate | signal with controls
KSSQSVLYEDRNKNSVA | WAHTRES | QQMHRLPLS | 3.04 / nd / 5.02 | 0/9
KSSQSPLYEPRNKNYVA | WASTRES | QQYHRLPLS | 2.48 / nd / 3.17 | 1/9 (5.70)
KSSQSVLNESRNKNSVA | WASTREN | RQYHRLPLS | 3.87 / nd / nd | 0/9
KSSQSVLYESRNKNSVA | WLSTRES | QKGHRLPLS | 4.93 / 3.37 / 4.80 | 5/9 (4.21)
KSSQSVLYESRNKNSVA | WARTRES | QNYHRLPLS | nd / nd / nd | 1/9 (3.90)
KSSQSVSYESRNKAKVA | WASTRES | QQYHRLPLS | 2.12 / 3.49 / nd | 2/9 (4.17)
KSSQSVPYESRNKNSVA | WASTRES | QQYHRWRLS | 1.79 / 2.26 / 1.99 | 4/9 (4.19)
KSVQSVLYESRNPNSVA | WASQRES | QQYHRLPLS | 0.70 / 0.91 / 0.96 | 5/9 (5.06)
KSSQSVLYESPNQNSVA | WASTRES | PQYHRLPLS | nd / nd / nd | 2/9 (4.26)
NSSQYVLYESRNKNSVP | WASTRES | QQYHRLPLS | nd / nd / nd | 2/9 (4.21)
KSSQWVLYEIRNKNSVA | WASTRES | QQYYRLPLS | 5.51 / nd / nd | 1/9 (3.87)
KSSTSVLYESRNKNSVA | WISTRES | QQSHRLPLS | 2.94 / 2.76 / nd | 4/9 (4.02)
KSSQSRWYESRNKNSVA | WASTRHS | QQYHRLPLS | nd / 2.22 / 3.18 | 3/9 (3.37)
KSSDSQLYESMNKNSVA | WASTRES | QQYHRLPLS | 0.19 / 0.52 / 0.38 | 3/9 (4.91)
KSSQSWLYESSNKNSVA | WASTRES | QQYHRLPLQ | 1.33 / 1.39 / 1.68 | 0/9
KSSQSVLYESPNKNSVA | WVSTRVS | QQYHRLPLS | 0.88 / 1.40 / 1.06 | 3/9 (4.29)
KSHQSKLYESRGKNSVA | WASTRES | QQYHRLPLS | 1.94 / 2.27 / 3.13 | 1/9 (3.46)
VSSQSVLYESRNKNSVA | WDSTRES | QQYHRFPLS | 2.11 / 2.46 / 2.37 | 0/9
KSSQSVLSENRNFNSVA | WASTRES | QQYHRLPLS | -0.03 / 0.34 / 0.24 | 2/9 (4.55)
KSSQSVLYESYNKNSVA | WASNPES | QQYHRLPLS | 3.68 / 3.02 / 2.08 | 0/9
KSSQSVLYESRNKNSVA | WASVRES | QQYLRLPLE | 1.20 / 1.97 / 1.94 | 0/9
KSSQDVLYESRNKQSVA | WASTRES | QQYHREPLS | 3.48 / 3.77 / 3.65 | 1/9 (4.50)
RSSQSVLYESGNKNSVA | WASTYES | QQYHRLPLS | nd / 3.86 / nd | 7/9 (3.97)
KSSQSVLYDSRNKNSVA | WASHREM | QQYHRLPLS | 0.81 / 1.00 / 0.94 | 2/9 (3.62)
KSGQSVLYESRQKDSVA | WASTRES | QQYHRLPLS | 2.09 / 2.00 / 2.58 | 3/9 (3.82)
KSVQSVLYESRNKNSVA | WASTRES | QQYHRDRLS | nd / nd / nd | 0/9
KSSQSVLYMSRNKNSVQ | YASTRES | QQYHRLPLS | nd / nd / nd | 1/9 (5.09)
KSSQSVLYDSRNKNSVA | WQSTRES | QQYHRLPLS | 2.41 / 1.50 / 1.78 | 1/9 (3.03)
KSSQSVLYESRNKNSVA | WASTREI | QQYPRLPLK | 0.05 / 0.38 / 0.51 | 0/9
KSSQSVLKESRNKNSVA | WASTRES | QQYHMLPES | nd / nd / nd | 0/9
KSSQSVLYDSRNKNSVA | WASTRES | QQYHRLPLS | nd / nd / nd | 2/9 (3.33)
KSSQSVLYESRNYNSVA | HASTRWS | QQYHRLPLS | 1.18 / 1.34 / 1.38 | 2/9 (3.78)
KSDQSVLYESRVKNSVA | WASTRES | QQYPRLPLS | nd / nd / nd | 1/9 (2.19)
KSSQSELYESFNKNSVA | WASTDES | QQYHRLPLS | nd / 3.17 / 4.63 | 1/9 (4.19)
KSNQSVLAESRNKNSVA | WASTRCS | QQYHRLPLS | 0.60 / 0.76 / 0.75 | 1/9 (2.85)
KSSQSVLYESRDKNSRY | WASTRES | QQYHRLPLS | 0.90 / 1.25 / 0.84 | 0/9
KSSQSVLYECRNKNSVA | WAFTRES | QQYHRLPWS | nd / nd / nd | 3/9 (3.40)

From the list, the first 5 with no signal in any replicate:

CDR-L1	CDR-L2	CDR-L3	log10 Kd (nM) by replicate	signal with controls
KSSQSVLYESRNKNSVA	WARTRES	QNYHRLPLS	nd / nd / nd	1/9 (3.90)
KSSQSVLYESPNQNSVA	WASTRES	PQYHRLPLS	nd / nd / nd	2/9 (4.26)
NSSQYVLYESRNKNSVP	WASTRES	QQYHRLPLS	nd / nd / nd	2/9 (4.21)
KSVQSVLYESRNKNSVA	WASTRES	QQYHRDRLS	nd / nd / nd	0/9
KSSQSVLYMSRNKNSVQ	YASTRES	QQYHRLPLS	nd / nd / nd	1/9 (5.09)

As a blank, each scFv also met three strains without target: over library AAYL50, 18% of these pairings were detected, typically at 4.19 and seldom below 2.99. For each scFv, signals with the empty controls are counted beside the result, with their mean in brackets.
Parent in this assay: reference entry 0.65, copy in this library 1.68.

From the AlphaSeq antibody data of Engelhart et al. 2022 (doi:10.1038/s41597-022-01779-4), copy in the FLAb collection.